Experimental data reported in ChEMBL document CHEMBL4680200.
pKi: −log10 of the molar value.

Protein sequences, listed by entry. Tags and fused reporters are not part of them.
UniProt P33535, whole entry: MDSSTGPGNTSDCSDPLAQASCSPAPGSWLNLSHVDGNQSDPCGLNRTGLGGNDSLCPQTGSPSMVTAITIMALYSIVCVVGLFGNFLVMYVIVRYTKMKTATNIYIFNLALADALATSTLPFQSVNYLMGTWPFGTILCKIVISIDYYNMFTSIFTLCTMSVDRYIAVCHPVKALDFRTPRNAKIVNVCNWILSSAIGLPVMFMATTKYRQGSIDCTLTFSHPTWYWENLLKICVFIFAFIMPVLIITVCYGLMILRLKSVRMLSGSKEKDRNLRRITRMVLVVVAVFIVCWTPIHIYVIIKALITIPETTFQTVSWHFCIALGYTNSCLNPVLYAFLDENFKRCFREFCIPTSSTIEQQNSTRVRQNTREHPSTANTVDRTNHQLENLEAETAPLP
UniProt P33533, whole entry: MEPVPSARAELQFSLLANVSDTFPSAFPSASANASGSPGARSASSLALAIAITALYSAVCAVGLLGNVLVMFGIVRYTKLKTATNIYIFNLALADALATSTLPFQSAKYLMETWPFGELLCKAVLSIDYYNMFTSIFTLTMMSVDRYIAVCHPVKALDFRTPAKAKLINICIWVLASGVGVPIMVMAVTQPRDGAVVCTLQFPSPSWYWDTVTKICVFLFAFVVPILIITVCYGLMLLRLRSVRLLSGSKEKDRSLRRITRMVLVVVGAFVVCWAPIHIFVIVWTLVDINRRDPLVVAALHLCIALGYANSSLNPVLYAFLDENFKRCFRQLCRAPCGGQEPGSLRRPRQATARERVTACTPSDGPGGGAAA
UniProt P41144, whole entry: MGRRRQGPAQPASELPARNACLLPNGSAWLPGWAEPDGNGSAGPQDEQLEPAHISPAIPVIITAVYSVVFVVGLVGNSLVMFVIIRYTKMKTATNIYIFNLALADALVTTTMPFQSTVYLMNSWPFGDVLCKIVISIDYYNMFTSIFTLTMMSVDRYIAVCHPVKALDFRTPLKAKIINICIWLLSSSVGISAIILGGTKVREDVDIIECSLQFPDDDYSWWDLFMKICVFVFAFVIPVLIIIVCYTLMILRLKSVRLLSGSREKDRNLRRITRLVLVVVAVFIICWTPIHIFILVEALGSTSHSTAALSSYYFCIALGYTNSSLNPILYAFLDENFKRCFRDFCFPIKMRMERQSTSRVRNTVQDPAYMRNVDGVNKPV

Key:
Mu-type opioid receptor = Mu-type opioid receptor (Rattus norvegicus, UniProt P33535); test: Displacement of [3H]DAMGO from MOR in Wistar rat brain membranes measured after 45 mins by scintillation counting method; details: strain Wistar
[1] = biological target: Delta-type opioid receptor (Rattus norvegicus, UniProt P33533); test: Displacement of [3H]Ile5'6-deltorphin II from DOR in Wistar rat brain membranes measured after 45 mins by scintillation counting method; details: strain Wistar
[2] = biological target: Kappa-type opioid receptor (Cavia porcellus, UniProt P41144); test: Displacement of [3H]HS665 from KOR in guinea pig brain membranes measured after 45 mins by scintillation counting method

SMILES	pKi (Mu-type opioid receptor)	pKi [1]	pKi [2]
CC(C)(C)[C@](C)(O)[C@H]1CC23CC[C@]1(O)[C@H]1Oc4c(O)ccc5c4[C@]12CCN(CC1CC1)[C@@H]3C5	9.66	7.80	9.59
CC(C)(O)[C@H]1CC23CC[C@]1(O)[C@H]1Oc4c(O)ccc5c4[C@]12CCN(CC1CC1)[C@@H]3C5	10.48	8.83	10.62
